Chains of the proteins cited; added tags and fusions are not shown. Residues count along the entry.
UniProt P11362, 22-822: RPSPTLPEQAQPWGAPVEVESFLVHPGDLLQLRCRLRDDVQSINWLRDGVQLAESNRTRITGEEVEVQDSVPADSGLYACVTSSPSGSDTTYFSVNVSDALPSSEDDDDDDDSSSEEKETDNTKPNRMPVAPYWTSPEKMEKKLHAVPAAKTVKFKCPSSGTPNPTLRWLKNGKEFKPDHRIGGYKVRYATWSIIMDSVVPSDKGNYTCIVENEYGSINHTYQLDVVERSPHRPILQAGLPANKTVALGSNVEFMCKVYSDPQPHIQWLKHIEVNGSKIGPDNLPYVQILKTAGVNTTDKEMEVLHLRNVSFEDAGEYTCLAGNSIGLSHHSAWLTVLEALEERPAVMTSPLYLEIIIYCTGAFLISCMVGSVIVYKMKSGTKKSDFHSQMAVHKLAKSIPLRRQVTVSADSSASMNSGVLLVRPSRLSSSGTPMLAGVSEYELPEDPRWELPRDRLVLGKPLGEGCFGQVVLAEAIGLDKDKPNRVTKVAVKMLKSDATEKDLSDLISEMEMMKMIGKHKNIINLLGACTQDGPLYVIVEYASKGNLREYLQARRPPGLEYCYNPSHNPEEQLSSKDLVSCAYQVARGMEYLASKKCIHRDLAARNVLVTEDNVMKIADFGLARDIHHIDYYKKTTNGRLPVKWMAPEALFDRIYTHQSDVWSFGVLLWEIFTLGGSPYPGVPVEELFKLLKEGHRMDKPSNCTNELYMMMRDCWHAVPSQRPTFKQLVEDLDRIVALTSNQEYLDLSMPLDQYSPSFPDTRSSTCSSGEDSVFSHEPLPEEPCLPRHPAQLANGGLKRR

According to paper PMC8290231, “GZD824 overcomes FGFR1‐V561F/M mutant resistance in vitro and in vivo” (Cancer Medicine, 2021):

Biological target: T1, FGFR1 (Homo sapiens, UniProt P11362)
T1 construct: purchased Invitrogen (Waltham, MA, USA)
Assay: Cellular thermal shift assay (CETSA) in H1581 cells
Type: binding
Details: 1 μM, 38.0 to 57.8℃

## Cc1ccc(C(=O)Nc2ccc(CN3CCN(C)CC3)c(C(F)(F)F)c2)cc1C#Cc1cnc2[nH]ncc2c1 [GZD824]
  thermal stability of FGFR1 protein (CETSA): significantly enhanced
